Holding throughout (experiment): Radiometric protein kinase assay (33PanQinase), Assay Condition A (thiol containing)
Common to all, as to format: biochemical

Chains of the proteins cited; added tags and fusions are not shown. Lines headed by an entry give the natural chain unless they say otherwise; changes in a name come on top.
UniProt Q9NYV4, whole entry: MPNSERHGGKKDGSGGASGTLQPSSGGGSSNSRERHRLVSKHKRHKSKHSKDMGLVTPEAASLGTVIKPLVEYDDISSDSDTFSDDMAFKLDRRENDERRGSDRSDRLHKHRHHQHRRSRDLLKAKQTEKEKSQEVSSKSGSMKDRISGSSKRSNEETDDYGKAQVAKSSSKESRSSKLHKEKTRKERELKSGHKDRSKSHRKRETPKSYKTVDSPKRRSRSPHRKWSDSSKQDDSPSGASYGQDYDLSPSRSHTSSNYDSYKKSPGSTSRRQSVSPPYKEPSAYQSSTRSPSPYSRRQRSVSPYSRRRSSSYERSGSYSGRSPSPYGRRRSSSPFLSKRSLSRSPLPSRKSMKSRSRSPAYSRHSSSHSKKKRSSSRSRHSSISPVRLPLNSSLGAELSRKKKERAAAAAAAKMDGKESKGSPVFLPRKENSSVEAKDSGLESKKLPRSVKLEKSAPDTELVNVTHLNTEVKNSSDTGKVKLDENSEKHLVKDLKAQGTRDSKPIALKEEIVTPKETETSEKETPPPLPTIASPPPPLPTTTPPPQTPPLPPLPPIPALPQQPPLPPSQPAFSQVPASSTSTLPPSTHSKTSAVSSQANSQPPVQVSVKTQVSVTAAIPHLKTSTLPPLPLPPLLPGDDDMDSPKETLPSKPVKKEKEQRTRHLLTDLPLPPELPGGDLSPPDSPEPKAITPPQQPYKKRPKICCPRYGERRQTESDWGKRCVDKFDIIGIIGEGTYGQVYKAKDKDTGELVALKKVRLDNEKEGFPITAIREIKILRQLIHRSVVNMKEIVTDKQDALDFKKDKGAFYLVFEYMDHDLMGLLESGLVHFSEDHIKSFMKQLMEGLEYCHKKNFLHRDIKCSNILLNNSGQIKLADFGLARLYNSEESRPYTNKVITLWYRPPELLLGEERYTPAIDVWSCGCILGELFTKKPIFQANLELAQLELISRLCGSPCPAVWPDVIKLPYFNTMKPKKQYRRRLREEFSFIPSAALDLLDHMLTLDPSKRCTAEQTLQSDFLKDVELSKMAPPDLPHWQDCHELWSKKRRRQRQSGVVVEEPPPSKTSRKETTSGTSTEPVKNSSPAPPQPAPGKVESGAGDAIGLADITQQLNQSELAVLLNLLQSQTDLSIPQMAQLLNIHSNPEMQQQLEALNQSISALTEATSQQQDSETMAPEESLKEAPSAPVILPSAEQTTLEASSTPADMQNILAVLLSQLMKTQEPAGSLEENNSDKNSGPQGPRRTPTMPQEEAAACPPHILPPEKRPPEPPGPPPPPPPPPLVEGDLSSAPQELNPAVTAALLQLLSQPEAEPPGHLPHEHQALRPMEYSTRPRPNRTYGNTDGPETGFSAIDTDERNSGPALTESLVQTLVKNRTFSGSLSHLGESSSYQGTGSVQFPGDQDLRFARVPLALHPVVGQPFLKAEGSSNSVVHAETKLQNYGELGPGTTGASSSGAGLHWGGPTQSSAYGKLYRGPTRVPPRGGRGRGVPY
UniProt P50613: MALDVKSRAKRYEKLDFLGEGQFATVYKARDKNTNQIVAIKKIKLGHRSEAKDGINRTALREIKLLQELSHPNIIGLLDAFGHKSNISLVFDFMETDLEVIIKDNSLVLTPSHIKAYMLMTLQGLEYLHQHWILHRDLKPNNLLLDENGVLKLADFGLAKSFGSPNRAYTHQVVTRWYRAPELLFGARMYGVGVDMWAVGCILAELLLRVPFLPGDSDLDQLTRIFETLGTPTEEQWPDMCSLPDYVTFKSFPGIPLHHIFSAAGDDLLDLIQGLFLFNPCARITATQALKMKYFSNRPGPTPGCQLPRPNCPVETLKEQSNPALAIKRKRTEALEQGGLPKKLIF

Test [1] deals with CDK2/CycA2 (Homo sapiens (Human), UniProt P24941). The note with it: thiol containing (1.2 mM DTT), ATP 0.3 μM. How it is done: (§1) The IC50 profile of test compounds was determined using three protein kinases.
(§2) The compounds were provided as pre-weighed powders in vials. The compounds were dissolved to 1×10^−02M by adding DMSO. 100 μl of each of the resulting stock solutions were transferred into column 2 of four 96 well “master plates”.
(§3) Prior to testing, the 1×10^−02M stock solutions in column 2 of the master plates were subjected to a serial, semi-logarithmic dilution using 100% DMSO as a solvent. […] Column 1 and 7 were filled with 100% DMSO as controls. Subsequently, 2×10 μl from each well of the serial diluted copy plates were aliquoted with a 96 channel pipettor into two identical sets of “compound dilution plates”.
(§4) In the process, 90 μl H2O were added to each well of a set of compound dilution plates. To minimize potential precipitation, the H2O was added to each plate only a few minutes before the transfer of the compound solutions into the assay plates. Each plate was shaken thoroughly, resulting in a “compound dilution plate/10% DMSO”.
(§5) For the assays, 5 μl solution from each well of the compound dilution plates/10% DMSO were transferred into the assay plates. The final volume of the assay was 50 μl. All compounds were tested at 10 final assay concentrations in the range from 1×10^−04M to 3×10^−09M, in singlicate. The final DMSO concentration in the reaction cocktails was 1% in all cases.
(§6) All protein kinases were expressed in Sf9 insect cells or in E. coli as recombinant GST-fusion proteins or His-tagged proteins, either as full-length or enzymatically active fragments. All kinases were produced from human cDNAs and purified by either GSH-affinity chromatography or immobilized metal. Affinity tags were removed from a number of kinases during purification. The purity of the protein kinases was examined by SDS-PAGE/Coomassie staining, the identity was checked by mass spectroscopy.
(§7) A radiometric protein kinase assay (^33PanQinase® Activity Assay) was used for measuring the kinase activity of the three protein kinases. All kinase assays were performed in 96-well FlashPlates™ from PerkinElmer (Boston, Mass., USA) in a 50 μl reaction volume. The reaction cocktail was pipetted in four steps in the following order: • 20 μl of assay buffer (standard buffer) • 5 μl of ATP solution (in H2O) • 5 μl of test compound (in 10% DMSO) • 20 μl enzyme/substrate mix
(§8) The reaction cocktails were incubated at 30° C. for 60 minutes. The reaction was stopped with 50 μl of 2% (v/v) H3PO4, plates were aspirated and washed two times with 200 μl 0.9% (w/v) NaCl. Incorporation of ^33Pi was determined with a microplate scintillation counter (Microbeta, Wallac). All assays were performed with a BeckmanCoulter/SAGIAN™ Core System.
(§9) The median value of the counts in column 1 (n=8) of each assay plate was defined as “low control”. This value reflects unspecific binding of radioactivity to the plate in the absence of a protein kinase but in the presence of the substrate. The median value of the counts in column 7 of each assay plate (n=8) was taken as the “high control”, i.e. full activity in the absence of any inhibitor. The difference between high and low control was taken as 100% activity.
(§10) As part of the data evaluation the low control value from a particular plate was subtracted from the high control value as well as from all 80 “compound values” of the corresponding plate. The residual activity (in %) for each well of a particular plate was calculated by using the following formula: Res. Activity (%)=100×[(cpm of compound−low control)/(high control−low control)]
(§11) The residual activities for each concentration and the compound IC50 values were calculated using Quattro Workflow V3.1.1 (Quattro Research GmbH, Munich, Germany). […] The fitting method used was a least-squares fit.

The target in test [2] is CDK12 wt/CycK (Homo sapiens (Human), UniProt Q9NYV4). The note with it: thiol containing (1.2 mM DTT), ATP 0.3 μM. How it is done:
as §1, §2, §3, §4, §5, §6, §7, §8, §9, §10, §11

Test [3] has as its target CDK7/CycH/MAT1 (Homo sapiens (Human), UniProt P50613). How it is done:
as §1, §2, §3, §4, §5, §6, §7, §8, §9, §10, §11

For the compound `CN(C)C/C=C/C(=O)N(C)c1ccc(C(=O)N2CC[C@@H](Nc3ncc4ccccc4n3)C2)cc1` [Example 86, (R,E)-4-(dimethylamino)-N-methyl-N-(4-(3-(quinazolin-2-ylamino)pyrrolidine-1-carbonyl)phenyl)but-2-enamide], the figures for the 50% inhibitory concentration (IC50) in test [1] and in test [2] were 1 to 10 µM and 100 to 1000 nM, respectively.

`C=CC(=O)Nc1ccc(C(=O)N2CCC[C@@H](Nc3ncc4ccc(C(=O)N(C)C)cc4n3)C2)cc1` [Example 12, (R)-2-((1-(4-acrylamidobenzoyl)piperidin-3-yl)amino)-N,N-dimethylquinazoline-7-carboxamide]: the results for the concentration for half-maximal inhibition (IC50) in test [1], in test [2] and in test [3] were 10 to 30 µM, 1000 to 10000 nM and 30 to 100 µM, respectively.

In the case of `Cc1cc(C(=O)N2CC[C@@H](Nc3ncc4ccccc4n3)C2)ccc1NC(=O)/C=C/CN(C)C` [Example 83, (R,E)-4-(dimethylamino)-N-(2-methyl-4-(3-(quinazolin-2-ylamino)pyrrolidine-1-carbonyl)phenyl)but-2-enamide], the IC50 – broadly, the point on the concentration scale where inhibition reaches its midpoint – in test [1] lay within 1 to 10 µM; in test [2], 1000 to 10000 nM; in test [3] it was 1 to 10 µM.

In the case of `CN(C)C/C=C/C(=O)Nc1ccc(C(=O)N2CC[C@@H](Nc3ncc4ccccc4n3)C2)cc1F` [Example 68, (R,E)-4-(dimethylamino)-N-(2-fluoro-4-(3-(quinazolin-2-ylamino)pyrrolidine-1-carbonyl)phenyl)but-2-enamide], the IC50 in test [1] fell in the range of 1 to 10 µM; in test [2], 100 to 1000 nM; in test [3], 0.1 to 1 µM.

Regarding `CN(C)C/C=C/C(=O)Nc1ccc(C(=O)N2CC[C@@H](Nc3ncc4cc(F)ccc4n3)C2)cc1` [Example 76, (R,E)-4-(dimethylamino)-N-(4-(3-((6-fluoroquinazolin-2-yl)amino)pyrrolidine-1-carbonyl)phenyl)but-2-enamide], the values for the IC50 in test [1], in test [2] and in test [3] were 1 to 10 µM, 1000 to 10000 nM and 1 to 10 µM, respectively.

With `COc1cc(NC(=O)/C=C/CN(C)C)ccc1C(=O)N1CC[C@@H](Nc2ncc3ccccc3n2)C1` [Example 85, (R,E)-4-(dimethylamino)-N-(3-methoxy-4-(3-(quinazolin-2-ylamino)pyrrolidine-1-carbonyl)phenyl)but-2-enamide], the IC50 is 1 to 10 µM in test [1] and 1000 to 10000 nM in test [2].

Source of the values: patent US11447493B2 (Kinnate Biopharma Inc., priority 2018, dated 2022).
